Ki data for one compound are collected here from ChEMBL document CHEMBL1821644, “A prodrug approach for improving antituberculosis activity of potent Mycobacterium tuberculosis type II dehydroquinase inhibitors” (J Med Chem, 2011).

In this assay the target is T1, 3-dehydroquinate dehydratase (Mycobacterium tuberculosis, UniProt P9WPX7).
T1 sequence (P9WPX7 whole entry): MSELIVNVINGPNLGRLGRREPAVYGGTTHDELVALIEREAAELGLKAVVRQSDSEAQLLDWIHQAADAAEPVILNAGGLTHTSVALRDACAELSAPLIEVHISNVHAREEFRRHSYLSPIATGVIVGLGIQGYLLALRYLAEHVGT
Kind of assay: Competitive inhibition of Mycobacterium tuberculosis DHQ2.

`Cc1ccc2sc(COC3=C[C@@](O)(C(=O)O)C[C@@H](O)[C@@H]3O)cc2c1` had a Ki of 42.5 nM.

Broadly, the Ki is a measure of affinity in units of concentration, obtained from inhibition or displacement. A high value points to weaker binding.
